Assay results: paper PMC7723054
Some of the results follow.

T1: LIN28A (human?, UniProt Q9H9Z2 1-209)
T1 sequence: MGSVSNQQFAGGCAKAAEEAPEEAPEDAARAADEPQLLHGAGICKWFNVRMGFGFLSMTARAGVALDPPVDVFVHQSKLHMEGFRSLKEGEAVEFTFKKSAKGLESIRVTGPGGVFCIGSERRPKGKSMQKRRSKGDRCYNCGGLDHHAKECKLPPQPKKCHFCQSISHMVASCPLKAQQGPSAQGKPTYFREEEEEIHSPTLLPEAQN

T2: CIRBP (Homo sapiens, UniProt Q14011 1-172)
T2 sequence: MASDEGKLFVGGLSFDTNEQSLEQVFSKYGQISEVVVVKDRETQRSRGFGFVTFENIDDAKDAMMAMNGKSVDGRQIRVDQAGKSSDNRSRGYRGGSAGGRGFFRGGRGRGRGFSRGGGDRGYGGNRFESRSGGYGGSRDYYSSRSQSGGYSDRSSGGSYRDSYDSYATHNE

T3: DHX36 (Homo sapiens, UniProt Q9H2U1 1-1008)
T3 sequence: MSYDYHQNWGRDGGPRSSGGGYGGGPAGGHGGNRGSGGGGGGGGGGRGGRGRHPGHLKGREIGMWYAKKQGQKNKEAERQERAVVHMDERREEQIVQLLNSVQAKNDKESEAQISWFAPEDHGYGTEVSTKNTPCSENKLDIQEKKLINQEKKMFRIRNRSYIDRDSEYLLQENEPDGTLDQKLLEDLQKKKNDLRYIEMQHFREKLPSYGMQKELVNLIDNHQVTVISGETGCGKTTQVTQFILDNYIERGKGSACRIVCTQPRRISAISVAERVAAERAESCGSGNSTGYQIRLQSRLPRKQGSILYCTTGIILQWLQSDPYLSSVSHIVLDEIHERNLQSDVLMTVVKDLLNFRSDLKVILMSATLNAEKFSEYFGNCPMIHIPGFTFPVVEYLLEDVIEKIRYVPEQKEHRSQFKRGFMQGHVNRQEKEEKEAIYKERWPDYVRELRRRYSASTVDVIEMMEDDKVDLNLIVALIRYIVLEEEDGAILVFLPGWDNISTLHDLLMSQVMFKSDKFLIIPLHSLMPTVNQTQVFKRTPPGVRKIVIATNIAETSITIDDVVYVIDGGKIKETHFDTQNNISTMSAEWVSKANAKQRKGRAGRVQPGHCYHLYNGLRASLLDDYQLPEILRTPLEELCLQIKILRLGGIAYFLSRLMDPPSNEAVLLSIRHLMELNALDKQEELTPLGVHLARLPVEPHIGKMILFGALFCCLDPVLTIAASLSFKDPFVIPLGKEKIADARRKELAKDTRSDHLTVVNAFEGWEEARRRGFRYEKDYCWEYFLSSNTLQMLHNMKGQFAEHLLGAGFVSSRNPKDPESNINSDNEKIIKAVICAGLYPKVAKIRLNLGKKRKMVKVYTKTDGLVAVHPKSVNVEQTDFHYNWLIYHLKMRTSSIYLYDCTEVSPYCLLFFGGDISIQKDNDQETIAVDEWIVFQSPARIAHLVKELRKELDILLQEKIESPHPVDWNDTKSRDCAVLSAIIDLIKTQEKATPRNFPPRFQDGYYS

B1: hsa-mir-3186 (structured_RNA)
RNA: GGGAGCAAAAGAAGCGCCUACCUGUUGAGGUGUACGAAGUUUCAGCGUGGCUUCAACCAAGUUCAAAGUCACGCUGAAGCUUCGUGCAC
B2: hsa-mir-423 (structured_RNA)
RNA: GGGAAAUACGGGUUGACUGUUUUGUUGCGGUGUACGAAGUUUCAGCGACUUUUCUAUUUUCCAAAAGCGCUGAAGCUUCGUGCAC
B3: hsa-mir-6805 (structured_RNA)
RNA: GGGACUCUGGUCCAAGAUUAUCCCUUCUGGUGUACGAAGUUUCAGCGUGUAUGGGCUGAGCCUUGCGCUGAAGCUUCGUGCAC
B4: hsa-mir-4429 (structured_RNA)
RNA: GGGCAGCCGCACAGCGUAUACAAGGAUCGGUGUACGAAGUUUCAGCGGCGACUGGUGUCUAAUUUGUUUGUCGCUGAAGCUUCGUGCAC
B5: hsa-mir-4513 (structured_RNA)
RNA: GGGACAUUUUGAGACUGGCCGGGAGUUGGGUGUACGAAGUUUCAGCCCAUAAGCUGUCUAAAACUUCGGCUGAAGCUUCGUGCAC
B6: hsa-mir-578 (structured_RNA)
RNA: GGGAGAAUAAUUCAGUCCGGCAAGGGCAGGUGUACGAAGUUUCAGCGAAGCUCCUAUAGCUCCUGUAGCUUCGCUGAAGCUUCGUGCAC
B7: hsa-mir-934 (structured_RNA)
RNA: GGGAACAUGCGCCGUGGGUCUAUAGUUAGGUGUACGAAGUUUCAGCCUGGUAGUAUAAAACCCAGGCUGAAGCUUCGUGCAC
B8: hsa-mir-504 (structured_RNA)
RNA: GGGAAAGCAUGGGUCGGAGGUUGGACAAGGUGUACGAAGUUUCAGCUCUAUCUGUAUUCUUACUGAAGGGAGCUGAAGCUUCGUGCAC
B9: hsa-mir-581 (structured_RNA)
RNA: GGGAAGGGACUCAUAUAUUUGCAGCACAGGUGUACGAAGUUUCAGCCAGUGCUUUUAGAAAAUUUGUGUGGCUGAAGCUUCGUGCAC
B10: hsa-mir-496 (structured_RNA)
RNA: GGGAAUGGGGCGCUCCCCUCAAUAGUUGGGUGUACGAAGUUUCAGCUUCAUUUUAUUUAUGAUGAGGCUGAAGCUUCGUGCAC
B11: hsa-mir-4772 (structured_RNA)
RNA: GGGAACCCUUAUUGGAGGCAUACUCCGAGGUGUACGAAGUUUCAGCCAGACUGUCUUCCCAAAUAGCCUGGCUGAAGCUUCGUGCAC
B12: hsa-mir-676 (structured_RNA)
RNA: GGGAAACCACCUAGGUCCACAUGCAUACGGUGUACGAAGUUUCAGCCUUGCAGAAUUAAUGGAAUGCUGGCUGAAGCUUCGUGCAC
B13: hsa-mir-3671 (structured_RNA)
RNA: GGGACAGUUAGGGUUCGAAAGCAAGCACGGUGUACGAAGUUUCAGCACAUGAAAAUAAAAUGUAAAUUAUUUUAUUUCUAUCAGCUGAAGCUUCGUGCAC
B14: hsa-mir-3921 (structured_RNA)
RNA: GGGAACAUCGACUGGGCUAGCAGAUAUCGGUGUACGAAGUUUCAGCGAGACUUAGAAAUCCCUAAGUCUCGCUGAAGCUUCGUGCAC
B15: hsa-mir-22 (structured_RNA)
RNA: GGGAAAGGCGAAGUGAAACAGUAUGAAUGGUGUACGAAGUUUCAGCGCUUUAUGUCCUGACCCAGCUAAAGCGCUGAAGCUUCGUGCAC
B16: hsa-mir-759 (structured_RNA)
RNA: GGGAACGGGUUACGUUGAAAUUCCGACGGGUGUACGAAGUUUCAGCUGACUCAGAUCUGCUGAAGCUUCGUGCAC
B17: hsa-mir-4788 (structured_RNA)
RNA: GGGAAGUUAGGCCCAAUAGGCUCAGAGGGGUGUACGAAGUUUCAGCAGGCAUUAGGAUCCUUAUUCUUGCCUGCUGAAGCUUCGUGCAC
B18: hsa-mir-8074 (structured_RNA)
RNA: GGGAAGGGCCCAUCCUUCUACACUUGAGGGUGUACGAAGUUUCAGCAUGGGAGCCCAGAGACGUCCUAUGCUGAAGCUUCGUGCAC
B19: hsa-mir-6860 (structured_RNA)
RNA: GGGACACGCUAUACCAACACUCUCCGUAGGUGUACGAAGUUUCAGCGAGUUUGGAGUCGGUGGGUGGAGCCAAACUGGCUGAAGCUUCGUGCAC
B20: NEAT1_ParasoR_ID22 (structured_RNA)
RNA: GGGAAUGCAGGCUUUAGUCGCAGACUACGGUGUACGAAGUUUCAGCUAAGUGUAAUCAUACAGUAUUUGUCUUUUUGGGUCUGUCUGAUUUCACUUAGCUGAAGCUUCGUGCAC
B21: hsa-mir-5093 (structured_RNA)
RNA: GGGAAAGCGAGCCAUUUCUAUCCGUGAAGGUGUACGAAGUUUCAGCUCCUGAGCUAGGAGGAUUAGGAGCUGAAGCUUCGUGCAC
B22: hsa-mir-6088 (structured_RNA)
RNA: GGGAAACUGAAAAUGGGAAACAAGGUUUGGUGUACGAAGUUUCAGCGGGGUCUUGCUCUAUUGCUGAAGCUUCGUGCAC
B23: hsa-mir-548an (structured_RNA)
RNA: GGGAAACUUUAUUAAACCUUACCGGGCCGGUGUACGAAGUUUCAGCUUUGCCUAUAAAAGUAAUGGCAAAGCUGAAGCUUCGUGCAC
B24: hsa-mir-511 (structured_RNA)
RNA: GGGCAAGGCAAUGGGGCAACCAGUAAUAGGUGUACGAAGUUUCAGCCAGUCAGUAAAUAUUUUUUUGUGAAUGGCUGAAGCUUCGUGCAC
B25: hsa-mir-299 (structured_RNA)
RNA: GGGAAAUGGCCAUUGACCCUGAAGUAAAGGUGUACGAAGUUUCAGCCAUACAUUUUGAAUAUGUAUGGCUGAAGCUUCGUGCAC
B26: hsa-mir-4681 (structured_RNA)
RNA: GGGACAGUUACGUAAUUGGCUCUUUGGUGGUGUACGAAGUUUCAGCAUCUGCAGGGCAUUGUGCUAACAGGUGCUGAAGCUUCGUGCAC

Each binder was assayed against T1, LIN28A (assay: FOREST: bead pull-down of RNA structure library v1, barcode microarray; U1A/LIN28A: 20 mM HEPES pH 7.5, 80 mM KCl, 20 mM NaCl, 10% glycerol, 2 mM DTT, 0.1 ug/uL BSA, 4 C; BG4/CIRBP/DHX36: 10 mM Tris-HCl pH 7.5, 100 mM KCl (or LiCl),; high values mean tight binding).

Row | Binder | binding signal [z-score]
1 | B1 | -0.133
2 | B2 | -0.127
3 | B3 | -0.171
4 | B4 | -0.171
5 | B5 | -0.129
6 | B6 | -0.112
7 | B7 | -0.128
8 | B8 | -0.12
9 | B9 | -0.162
10 | B10 | -0.133
11 | B11 | -0.157
12 | B12 | -0.113
13 | B13 | -0.141
14 | B14 | -0.131
15 | B15 | -0.164
16 | B16 | -0.131
17 | B17 | -0.149
18 | B18 | -0.114
19 | B19 | -0.13
20 | B20 | -0.153
21 | B21 | -0.173
22 | B22 | -0.171
23 | B23 | -0.114
24 | B24 | -0.168
25 | B25 | -0.134
26 | B26 | -0.114

Each binder was assayed against T2, CIRBP in the same assay as above.

Row | Binder | binding signal [z-score]
27 | B1 | 0.297
28 | B2 | 0.873
29 | B3 | 0.438
30 | B4 | -0.226
31 | B5 | 0.0114
32 | B6 | 0.607
33 | B7 | 0.204
34 | B8 | -0.717
35 | B9 | 0.382
36 | B10 | -0.016
37 | B11 | 0.613
38 | B12 | 0.447
39 | B13 | 0.268
40 | B14 | 0.673
41 | B15 | -0.257
42 | B16 | 0.00142
43 | B17 | 0.964
44 | B18 | -1.35
45 | B19 | -0.454
46 | B20 | 0.543
47 | B21 | 0.145
48 | B22 | -0.041
49 | B23 | -1.4
50 | B24 | -0.00349
51 | B25 | 1.53
52 | B26 | -0.599

Each binder was assayed against T3, DHX36 in the same assay as above.

Row | Binder | binding signal [z-score]
53 | B1 | -0.0288
54 | B2 | -0.603
55 | B3 | 0.0347
56 | B4 | 0.44
57 | B5 | 0.304
58 | B6 | 0.639
59 | B7 | -0.648
60 | B8 | 0.467
61 | B9 | -0.586
62 | B10 | 0.0363
63 | B11 | -0.217
64 | B12 | -0.491
65 | B13 | -1.25
66 | B14 | -0.425
67 | B15 | -0.525
68 | B16 | -1.08
69 | B17 | -0.261
70 | B18 | -0.626
71 | B19 | 2.41
72 | B20 | -1.02
73 | B21 | -0.725
74 | B22 | -0.154
75 | B23 | -0.308
76 | B24 | -0.0418
77 | B25 | -0.224
78 | B26 | -0.527
